{"source": "patent US20150238573A1", "about": "“NUTRITIONAL FOOD AND FEED, COMPOSITION, PROCESSING AND METHOD OF USE” (Nutrinia Ltd., priority 2004, published 2015)", "settings": "600 μU/ml insulin for 40 days", "data": [{"substance": "Insulin", "values": [{"measurement": "Glucose", "result": "92.83 ± 16.14", "unit": "mg/dL"}, {"measurement": "Hematological pictures, study vs control group", "result": "similar"}]}]}
